Values quoted from earlier work in US11717549B2, “Steviol glycoside solubility enhancers” (CARGILL, INCORPORATED, priority 2017, dated 2023).

Details: temperature 25 ° C.; cited from earlier work

O=C(O)Cc1cc(O)ccc1O [2,5-hydroxybenzeneacetic acid]
solubility (ppm): 3.15E+05 ppm
